Ab-14 heavy chain CDR variants: yeast mating affinities

The measurements come from Li et al. 2023 (doi:10.1038/s41467-023-39022-2) through the FLAb antibody collection.

Target: peptide PDVDLGDISGINAS, taken from heptad repeat 2 (HR2) of SARS-CoV-2 spike.

The variants keep the light chain, the linker and the frameworks of Ab-14 (scFv order VH, a (GGGGS)3 linker, VL).
VH: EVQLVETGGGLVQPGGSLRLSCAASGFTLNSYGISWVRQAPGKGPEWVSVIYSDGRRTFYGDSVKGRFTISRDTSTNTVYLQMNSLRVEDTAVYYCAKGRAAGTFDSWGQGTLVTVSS
VL: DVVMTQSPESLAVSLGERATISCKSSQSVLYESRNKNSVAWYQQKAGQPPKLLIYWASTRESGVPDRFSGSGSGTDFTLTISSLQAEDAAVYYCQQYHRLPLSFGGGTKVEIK

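The parent was found by panning a naive human phage display library on the peptide. This is the validation round: designs drawn from the data on random variants, tested in the same kind of assay. Their group label is 14H_En_HC (En: ensemble of fine-tuned language models; HC: hill climbing; a sequence that several methods proposed may carry one label only). The scFvs were displayed on barcoded MATa yeast, the peptide on MATalpha yeast. After mating in shaken culture at 30 °C for 16 h, diploids were selected and their barcode pairs sequenced. A regression on co-assayed BCL2-family reference pairs converts the normalised counts of each replicate to an apparent Kd. Mating was done six times.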

Variants are written as CDR1, CDR2 and CDR3 of the heavy chain (limits as in the source). Parent: GFTLNSYGIS, VIYSDGRRTFYGDSVK, GRAAGTFDS. Affinities are written as log10 Kd with Kd in nM; a lower number is a better binder. The mean shown is taken over the replicates in which the pair was detected. "nd" marks a missing value. The strain was present, yet no cells mated with the target were sequenced in that replicate, which points to weak or no binding. The parent sequence was in this pool as ten entries: three were never detected, three once, and four in most replicates, with averages from 0.34 to 2.37.

CDR-H1,CDR-H2,CDR-H3,log10 Kd (nM) by replicate,"log10 Kd (nM), mean",control signals
GFDLNEYGIS,VIYADGRRTFYSDSVK,GTVAGTFDN,-0.41 / -0.27 / -0.49 / -0.58 / -0.76 / -0.33,-0.47,0 of 18
GFDLNEYGIS,VIYADGMRTFYADNVK,GNVAGTFDQ,0.98 / 0.60 / 0.22 / 0.75 / 0.19 / 1.02,0.63,0 of 18
GFDLNEYGIS,VIYADGRRTAYTDSVK,GQLAGTFDT,-0.42 / -0.26 / -0.57 / -0.74 / -0.67 / -0.58,-0.54,0 of 18
GFDLDEYGIS,VIYADGMRTFYQDSVK,GNVAGTFDS,-0.04 / 0.15 / -0.29 / 0.16 / 0.08 / 0.29,0.06,0 of 18
GFDLNEYGIS,VIYADGRRTAYSDSVK,GEAGGTFDL,-1.40 / -1.33 / -1.44 / -1.59 / -1.35 / -0.56,-1.28,0 of 18
GFDLNEYGIS,VIYADGLRTSYDDSVK,GQIAGTFDQ,-0.08 / 0.32 / -0.41 / -0.22 / -0.08 / -0.06,-0.09,0 of 18
GFNLNEYGIS,VIYADGMRTFYTDSVK,GETAGTFDM,0.10 / 0.10 / 0.24 / -0.22 / 0.16 / 0.00,0.06,0 of 18
GFDLNEYGIS,VIYADGRRTFYADSVK,GNTAGTFLN,-0.56 / -0.69 / -0.71 / -0.90 / -0.80 / -0.53,-0.70,2 of 18 (2.78)
GFDLNEYGIS,VIYADGRRTFYTDSVK,GTAAGTFDV,-0.63 / -0.61 / -0.69 / -0.74 / -0.73 / -0.59,-0.67,0 of 18
GFDLEEYGIS,VIYADGQRTFYSDSVK,GENAGTFDV,-0.10 / 0.16 / 0.96 / -0.02 / -0.26 / 0.45,0.20,0 of 18
GFDLNEYGIS,VIYADGRRTYYADSVK,GNEAGTFDM,-0.53 / -0.54 / -0.63 / -0.66 / -0.59 / -0.31,-0.55,0 of 18
GFDLNEYGIS,VIYADGRRTFYADDVK,GEVAGTFIV,0.03 / -0.11 / -0.36 / -0.36 / -0.01 / -0.35,-0.19,0 of 18
GFDLEDYGIS,VIYADGRRTAYIDSVK,GEAAGTFDL,0.60 / 0.46 / -0.47 / 0.68 / -0.18 / 0.12,0.20,1 of 18 (3.17)
GFDLNEYGIS,VIYADGFRTFYSDSVK,GEVAGTFDS,nd / 1.66 / 2.71 / nd / nd / 2.00,2.12,0 of 18
GFDLNEYGIS,VIYADGQRTFYADSVK,GNQAGTFIS,0.85 / 0.90 / 1.44 / 1.04 / 1.20 / 0.96,1.07,0 of 18
GFDLNEYGIS,VIYADGRRTFYTDSVK,GNLAGTFDS,-0.76 / -0.87 / -0.75 / -0.95 / -0.81 / -0.74,-0.81,0 of 18
GFDLDEYGIS,VIYADGRRTFYADSVK,GELAGTFDF,-0.79 / -0.89 / -0.94 / -1.06 / -1.01 / -0.52,-0.87,0 of 18
GFDINEYGIS,VIYADGRRTFYADSVK,GNTGGTFDL,0.22 / -0.13 / -0.15 / 1.84 / 0.01 / -0.43,0.23,0 of 18
GFDLNEYGIS,VIYADGRRTFYSDSVK,GNVAGTFDL,-0.43 / -1.10 / -0.60 / -0.52 / -0.39 / -0.08,-0.52,0 of 18
GFDLNEYGIS,VIYADGQRTFYADSVK,GEVAGTFVQ,-0.23 / -0.20 / -0.30 / -0.05 / -0.24 / -0.18,-0.20,1 of 18 (1.53)
GFDLNEYGIS,VIYADGRRTAYTDSVK,GANAGTFDM,-0.15 / -0.59 / -0.55 / -0.51 / -0.27 / -0.33,-0.40,1 of 18 (2.51)
GFDLNEYGIS,VIYADGSRTFYSDSVK,GNQAGTFDA,-0.46 / -1.01 / -0.86 / -0.97 / -0.46 / -0.60,-0.73,0 of 18
GFDLNEYGIS,VIYADGRRTAYLDSVK,GQTAGTFDT,0.74 / 0.45 / -0.71 / -0.88 / 0.76 / 0.21,0.09,0 of 18
GFDLNEYGIS,VIYADGRRTFYADSVK,GQVAGTFDQ,-0.42 / -0.45 / -0.55 / -0.80 / -0.70 / -0.57,-0.58,0 of 18
GFTLDEYGIS,VIYADGRRTFYADSVK,GKVAGTFDQ,-1.04 / -0.87 / -0.94 / -1.50 / -1.47 / -1.03,-1.14,0 of 18
GFDLNEYGIS,VIYADGMRTAYSDSVK,GEQAGTFDL,0.11 / 0.06 / -0.11 / -0.21 / -0.02 / 0.10,-0.01,0 of 18
GFDLNEYGIS,VIYADGRRTFYADSVK,GEFAGTFDS,0.65 / 0.05 / 0.46 / 0.11 / 0.04 / 0.29,0.27,0 of 18
GFDLNEYGIS,VIYADGRRTFYADKVK,GNVGGTFDI,-0.01 / 0.03 / -0.41 / -0.34 / -0.24 / 0.05,-0.15,0 of 18
GFTLDEYGIS,VIYADGRRTFYADSVK,GGVAGTFDQ,-0.57 / -0.62 / -0.61 / -0.71 / -0.59 / -0.76,-0.64,0 of 18
GFDLDEYGIS,VIYADGMRTFYADSVK,GTNAGTFLS,1.27 / 1.39 / 0.96 / nd / 1.34 / nd,1.24,0 of 18
GFNLNEYGIS,VIYADGRRTAYSNSVK,GEAAGTFDV,0.20 / 0.21 / 0.28 / -0.03 / 0.32 / 0.15,0.19,1 of 18 (2.30)
GFDLNEYGIS,VIYADGRRTFYADSVK,GQIAGTFDS,-0.39 / -0.47 / -0.69 / -0.78 / -0.68 / -0.44,-0.58,0 of 18
GFDLDEYGIS,VIYADGRRTFYIDSVK,GNVAGTFDV,-0.91 / -0.65 / -0.70 / -0.99 / -1.01 / -0.81,-0.85,0 of 18
GFNLNEYGIS,VIYADGKRTFYADSVK,GEAAGTFDS,-0.19 / -1.02 / -1.38 / -1.00 / -0.90 / -1.14,-0.94,0 of 18
GFDLDEYGIS,VIYADGQRTFYADSVK,GEAAGTFDI,0.32 / 0.32 / 0.17 / -0.05 / 0.02 / 0.24,0.17,0 of 18
GFDLNEYGIS,VIYADGQRTFYSDSVK,GNQAGTFDS,-0.37 / -0.69 / -0.63 / -0.45 / -0.64 / -0.24,-0.50,0 of 18
GFDLNEYGIS,VIYADGRRTQYIDSVK,GEAAGTFDM,0.23 / -0.45 / 0.45 / -0.27 / 0.41 / 0.18,0.09,1 of 18 (2.86)
GFDLNEYGIS,VIYADGMRTSYTDSVK,GNEAGTFDS,-0.51 / -1.13 / -0.75 / -0.97 / -0.77 / -0.63,-0.79,1 of 18 (0.39)
GFDLNEYGIS,VIYADGMRTFYADSVK,GKTAGTFDQ,-0.35 / -0.59 / -0.59 / -0.76 / -0.38 / -0.26,-0.49,0 of 18
GFDLNEYGIS,VIYADGMRTFYTDSVK,GETAGTFDN,-0.57 / -0.40 / -0.69 / -0.73 / -0.92 / -0.74,-0.67,0 of 18
GFDLNEYGIS,VIYADGQRTFYTDSVK,GETAGTFDV,0.06 / -0.15 / -0.27 / -0.26 / 0.08 / -0.15,-0.12,1 of 18 (1.28)
GFSLDEYGIS,VIYADGRRTFYADSVK,GNVAGTFDV,-0.82 / -0.95 / -1.14 / -1.05 / -0.67 / -0.86,-0.91,0 of 18
GFDLNEYGIS,VIYADGRRTFYADSVK,GTFAGTFDV,-0.57 / -0.56 / -0.21 / -0.88 / -0.72 / -0.56,-0.58,0 of 18

6 of these entries, quoted again:

CDR-H1,CDR-H2,CDR-H3,log10 Kd (nM) by replicate,"log10 Kd (nM), mean",control signals
GFDLNEYGIS,VIYADGRRTFYADSVK,GTFAGTFDV,-0.57 / -0.56 / -0.21 / -0.88 / -0.72 / -0.56,-0.58,0 of 18
GFDLNEYGIS,VIYADGQRTFYADSVK,GNQAGTFIS,0.85 / 0.90 / 1.44 / 1.04 / 1.20 / 0.96,1.07,0 of 18
GFDLNEYGIS,VIYADGRRTFYADDVK,GEVAGTFIV,0.03 / -0.11 / -0.36 / -0.36 / -0.01 / -0.35,-0.19,0 of 18
GFDLNEYGIS,VIYADGRRTFYSDSVK,GTVAGTFDN,-0.41 / -0.27 / -0.49 / -0.58 / -0.76 / -0.33,-0.47,0 of 18
GFNLNEYGIS,VIYADGKRTFYADSVK,GEAAGTFDS,-0.19 / -1.02 / -1.38 / -1.00 / -0.90 / -1.14,-0.94,0 of 18
GFDLNEYGIS,VIYADGMRTAYSDSVK,GEQAGTFDL,0.11 / 0.06 / -0.11 / -0.21 / -0.02 / 0.10,-0.01,0 of 18

In the paper, a design with two or fewer of six values counts as a poor binder. The range of this assay differs from that of the first round, and the authors advise against merging the two. Empty control strains, which show no peptide, gave a signal in 1% of pairings with all heavy chain designs; the median was 2.08 and 95% of these signals were weaker than 0.84. No background was subtracted. Also given: how often the same scFv was detected with the empty control strains, with their mean in brackets.